In this test the target is Cannabinoid receptor 2 (Homo sapiens, UniProt P34972). Put plainly: Agonist activity at human CB2 receptor expressed in CHO cells assessed as stimulation of [35S]-GTPgammaS binding relative to basal activity. In kind it is functional, cell-based. A general note: GTPγS resists hydrolysis and so accumulates on activated G proteins.

The chains behind the UniProt entries cited, without tags or fusion partners.
UniProt P34972, whole entry: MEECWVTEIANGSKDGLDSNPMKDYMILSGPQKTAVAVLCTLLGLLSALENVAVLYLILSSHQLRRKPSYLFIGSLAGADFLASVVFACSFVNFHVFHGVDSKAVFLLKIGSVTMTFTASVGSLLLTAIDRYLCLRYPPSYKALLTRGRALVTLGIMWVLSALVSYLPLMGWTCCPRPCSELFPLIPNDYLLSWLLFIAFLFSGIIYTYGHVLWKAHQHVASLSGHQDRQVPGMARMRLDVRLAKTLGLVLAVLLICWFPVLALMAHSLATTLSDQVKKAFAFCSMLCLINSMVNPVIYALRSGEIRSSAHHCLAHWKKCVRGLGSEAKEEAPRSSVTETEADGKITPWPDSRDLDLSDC

Each structure is given as a SMILES string.

Turning to `CCCCCn1cc(C(=O)NCC23CC4CC(CC(C4)C2)C3)c(=O)cc1-c1ccccc1`, the Emax (usually the maximal effect, on the per cent scale that the assay sets) is 37%.

For `CCCCCn1cc(C(=O)NC23CC4CC(CC(C4)C2)C3)c(=O)cc1-c1ccccc1`, the Emax is 39%.

Turning to `CCCCCn1cc(C(=O)NC2CCCCC2)c(=O)cc1C(C)(C)C`, the Emax is 135%.

In the case of `CCCCCn1cc(C(=O)NC23CC4CC(CC(C4)C2)C3)c(=O)cc1-c1ccc(Cl)cc1`, the Emax worked out at 42%.

Turning to `CCCCCCn1cc(C(=O)NC23CC4CC(CC(C4)C2)C3)c(=O)cc1-c1ccccc1`, the Emax stood at 33%.
